US7175853B1, “Therapeutic system which can be moisture-activated” (LTS Lohmann Therapie-Systeme AG, priority 1998, dated 2007)

Assay: Dehydration behaviour of activators by Difference Scanning Calorimetry (DSC)
Type: physicochemical
Details: FIG. 14a-c
Description: The dehydration behaviour of these substances was examined in three example substances by Difference Scanning Calorimetry (DSC). This thermal analysis provides information on the stages of dehydration taking place under energy absorption, and on the respective typical temperature.

sodium trisilicate [Na2Si3O7.xH2O]
dehydration temperature: 101.2 °C
